Apparent affinities of Ab-14 variants for a coronavirus HR2 peptide

Source: Li et al. 2023 (doi:10.1038/s41467-023-39022-2), MIT Lincoln Laboratory and A-Alpha Bio; data file from the FLAb repository.

Target peptide (SARS-CoV-2 spike, HR2 region): PDVDLGDISGINAS

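The variants were designed computationally from a first round of random CDR variants and then made and measured. Several design methods are mixed in this list. In AlphaSeq, yeast of one mating type display the scFv and yeast of the other type display the target. Pairs that bind mate more often; barcode pairs of the diploids are counted by sequencing. Read counts were normalised to the haploid input and turned into Kd by a linear fit to BCL2-family pairs of known affinity, for each replicate. Mating was done six times.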

Each scFv is VH, a 15-residue (Gly4Ser)3 linker, VL, as in the parent Ab-14, and differs from it in the CDRs of the light chain only.
VH: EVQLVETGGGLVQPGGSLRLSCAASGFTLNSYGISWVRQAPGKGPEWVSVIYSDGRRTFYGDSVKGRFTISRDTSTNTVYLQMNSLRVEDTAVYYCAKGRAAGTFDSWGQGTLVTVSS
VL: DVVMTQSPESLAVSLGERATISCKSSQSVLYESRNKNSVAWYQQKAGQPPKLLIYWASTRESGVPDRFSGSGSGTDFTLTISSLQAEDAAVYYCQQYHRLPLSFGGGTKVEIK

The whole VL of each variant is written out.
This list holds designs with at most six substitutions.
The Kd shown is the geometric mean over detected replicates; a lower Kd is a better binder.
"nd" means that the variant was in the library but no mating with the target was seen in any replicate; the authors take this as a sign of poor binding, and no number exists.
The range of this assay differs from that of the first round, and the authors advise against merging the two.

* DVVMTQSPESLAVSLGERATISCKFSQWVLYESRLKNSVAWYQQKAGQPPKLLIYNASTRESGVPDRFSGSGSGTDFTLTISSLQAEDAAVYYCQQYHRLPLSFGGGTKVEIK -> 3.0 nM (6 of 6 replicates; controls 0 of 18)
* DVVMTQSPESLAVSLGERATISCWFSQSVLYESRNKNSVAWYQQKAGQPPKLLIYWASTRESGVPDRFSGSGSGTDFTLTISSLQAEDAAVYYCQQYHRLPLSFGGGTKVEIK -> 310 nM (2 of 6 replicates; controls 0 of 18)
* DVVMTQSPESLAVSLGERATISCKFEQSNLYESRNKNSVAWYQQKAGQPPKLLIYNASTRESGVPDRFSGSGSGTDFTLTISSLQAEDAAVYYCQQYHRLPLSFGGGTKVEIK -> 740 pM (6 of 6 replicates; controls 0 of 18)
* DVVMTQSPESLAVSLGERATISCKSSQSVLYESRNKNSVAWYQQKAGQPPKLLIYWASTRESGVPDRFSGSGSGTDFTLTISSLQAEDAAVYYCQQYHELPLSFGGGTKVEIK -> nd (0 of 6 replicates; controls 1 of 18)
* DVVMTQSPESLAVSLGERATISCKLRQQTLYESRNKNSVAWYQQKAGQPPKLLIYGASTREEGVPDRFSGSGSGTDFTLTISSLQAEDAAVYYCQQYHRLPLSFGGGTKVEIK -> 550 pM (6 of 6 replicates; controls 0 of 18)
* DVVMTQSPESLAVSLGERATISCSHAQSVLYEVRNKNSVAWYQQKAGQPPKLLIYWASTRESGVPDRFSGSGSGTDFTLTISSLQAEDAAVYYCQQKSRLPLSFGGGTKVEIK -> 33 nM (1 of 6 replicates; controls 1 of 18)
* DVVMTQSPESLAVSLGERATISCKVSQSHLYESRNKNSVAWYQQKAGQPPKLLIYNASTRESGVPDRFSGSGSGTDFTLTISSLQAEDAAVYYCQDYHRLPLSFGGGTKVEIK -> 440 pM (6 of 6 replicates; controls 1 of 18)
* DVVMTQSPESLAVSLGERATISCKLSQSVLYESRNKNSVAWYQQKAGQPPKLLIYWASTRESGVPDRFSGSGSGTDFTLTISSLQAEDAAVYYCQQYGRLPLSFGGGTKVEIK -> 1.2 nM (6 of 6 replicates; controls 0 of 18)
* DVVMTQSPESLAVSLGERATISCLSSQSVLYESRNKNSVAWYQQKAGQPPKLLIYWASCRESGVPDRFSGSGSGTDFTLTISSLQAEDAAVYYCQQYHRLPLSFGGGTKVEIK -> 57 nM (1 of 6 replicates; controls 0 of 18)
* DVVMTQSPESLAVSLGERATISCKSSHSVLYESRNKNVVAWYQQKAGQPPKLLIYWATTRESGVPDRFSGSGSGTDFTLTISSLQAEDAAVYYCQQYHRLPLSFGGGTKVEIK -> nd (0 of 6 replicates; controls 0 of 18)
* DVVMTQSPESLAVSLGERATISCKSSQEVLWESRNKNIVAWYQQKAGQPPKLLIYWASTRESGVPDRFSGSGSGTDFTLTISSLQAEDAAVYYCQQYHRLPLSFGGGTKVEIK -> nd (0 of 6 replicates; controls 0 of 18)
* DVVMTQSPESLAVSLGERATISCKLSQSNDYESRNKNSVAWYQQKAGQPPKLLIYNASTRESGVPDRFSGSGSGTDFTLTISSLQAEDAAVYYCQQYHRLPLSFGGGTKVEIK -> 700 pM (6 of 6 replicates; controls 0 of 18)
* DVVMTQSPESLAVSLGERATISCKSSISYLYESMNKNSVAWYQQKAGQPPKLLIYDGSTRESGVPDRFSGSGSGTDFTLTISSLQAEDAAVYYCQQYHRLPLSFGGGTKVEIK -> 1.5 nM (6 of 6 replicates; controls 0 of 18)
* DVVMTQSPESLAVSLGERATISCKIQQSVLYESLNQNSVAWYQQKAGQPPKLLIYEASTRLSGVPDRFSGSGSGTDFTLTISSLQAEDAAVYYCQQYHRLPLSFGGGTKVEIK -> 1.5 nM (6 of 6 replicates; controls 0 of 18)
* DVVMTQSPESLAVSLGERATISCKLVNSTLYESRQKNSVAWYQQKAGQPPKLLIYEASTRESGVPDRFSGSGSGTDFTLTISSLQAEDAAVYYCQQYHRLPLSFGGGTKVEIK -> 2.5 nM (6 of 6 replicates; controls 1 of 18)
* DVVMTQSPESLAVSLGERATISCKSSQSVLYESRNKNSVAWYQQKAGQPPKLLIYRASTRESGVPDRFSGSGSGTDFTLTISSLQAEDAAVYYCQQYSRLPLSFGGGTKVEIK -> 200 nM (5 of 6 replicates; controls 0 of 18)
* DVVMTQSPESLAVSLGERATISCKLSQSQLYESRNKNSVAWYQQKAGQPPKLLIYQASTRLSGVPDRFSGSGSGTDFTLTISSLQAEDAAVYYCQQYHRLPLSFGGGTKVEIK -> 830 pM (6 of 6 replicates; controls 0 of 18)
* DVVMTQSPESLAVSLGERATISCKLSMSELYESRNKNSVAWYQQKAGQPPKLLIYGASTRESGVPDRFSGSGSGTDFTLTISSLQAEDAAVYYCQQYHRLPLSFGGGTKVEIK -> 2.1 nM (6 of 6 replicates; controls 0 of 18)
* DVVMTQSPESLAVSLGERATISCKSSQSVLFESRNKNSVAWYQQKAGQPPKLLIYAASTRISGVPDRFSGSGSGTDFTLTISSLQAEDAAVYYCQQYHCLPLSFGGGTKVEIK -> 37 nM (2 of 6 replicates; controls 0 of 18)
* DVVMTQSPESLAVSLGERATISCKSSQSVLYESRNKNSVAWYQQKAGQPPKLLIYAASTREDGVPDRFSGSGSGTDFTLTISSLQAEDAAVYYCQQYHRLPLSFGGGTKVEIK -> 4.7 nM (6 of 6 replicates; controls 3 of 18)
* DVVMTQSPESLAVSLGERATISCKMPQSWLYESRNKNSVAWYQQKAGQPPKLLIYNASQRESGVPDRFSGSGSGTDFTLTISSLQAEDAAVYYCQQYHRLPLSFGGGTKVEIK -> 680 pM (6 of 6 replicates; controls 2 of 18)
* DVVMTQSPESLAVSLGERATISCKLYQSVLYESRNKNSVAWYQQKAGQPPKLLIYNASYRESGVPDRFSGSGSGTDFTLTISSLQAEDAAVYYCQQYHRLPLSFGGGTKVEIK -> 2.8 nM (6 of 6 replicates; controls 1 of 18)
* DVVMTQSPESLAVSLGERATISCKLSQSVLYESRNKNNVAWYQQKAGQPPKLLIYGASTRCSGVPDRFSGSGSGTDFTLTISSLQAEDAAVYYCQQYHRLPLSFGGGTKVEIK -> 19 nM (6 of 6 replicates; controls 0 of 18)

Repeated from above, the 3 best binders with a signal in all replicates:

VL,Kd,detected,empty controls
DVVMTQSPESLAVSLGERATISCKVSQSHLYESRNKNSVAWYQQKAGQPPKLLIYNASTRESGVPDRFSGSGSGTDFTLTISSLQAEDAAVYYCQDYHRLPLSFGGGTKVEIK,440 pM,6/6,1/18
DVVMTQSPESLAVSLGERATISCKLRQQTLYESRNKNSVAWYQQKAGQPPKLLIYGASTREEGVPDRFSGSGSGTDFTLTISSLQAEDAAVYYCQQYHRLPLSFGGGTKVEIK,550 pM,6/6,0/18
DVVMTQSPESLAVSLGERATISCKMPQSWLYESRNKNSVAWYQQKAGQPPKLLIYNASQRESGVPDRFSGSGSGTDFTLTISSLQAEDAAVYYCQQYHRLPLSFGGGTKVEIK,680 pM,6/6,2/18

In the paper, a design with two or fewer of six values counts as a poor binder.
Nonspecific signal, from three strains lacking the peptide, appeared in 4% of pairings of all light chain designs, centred on 430 nM (5% of these signals below 38 nM); values are not corrected for it. For each scFv, signals with the empty controls are counted beside the result.
The parent sequence was in this pool as ten entries: three were never detected, three once, and four in most replicates, with averages from 2.2 nM to 240 nM.